Data: US8076310B2, “Phosphonate nucleosides useful as active ingredients in pharmaceutical compositions for the treatment of viral infections, and intermediates for their production” (K.U.Leuven Research & Development, priority 2004, dated 2011)

By UniProt entry, the sequences of proteins in these tests, tags left out.
UniProt P09884, whole entry: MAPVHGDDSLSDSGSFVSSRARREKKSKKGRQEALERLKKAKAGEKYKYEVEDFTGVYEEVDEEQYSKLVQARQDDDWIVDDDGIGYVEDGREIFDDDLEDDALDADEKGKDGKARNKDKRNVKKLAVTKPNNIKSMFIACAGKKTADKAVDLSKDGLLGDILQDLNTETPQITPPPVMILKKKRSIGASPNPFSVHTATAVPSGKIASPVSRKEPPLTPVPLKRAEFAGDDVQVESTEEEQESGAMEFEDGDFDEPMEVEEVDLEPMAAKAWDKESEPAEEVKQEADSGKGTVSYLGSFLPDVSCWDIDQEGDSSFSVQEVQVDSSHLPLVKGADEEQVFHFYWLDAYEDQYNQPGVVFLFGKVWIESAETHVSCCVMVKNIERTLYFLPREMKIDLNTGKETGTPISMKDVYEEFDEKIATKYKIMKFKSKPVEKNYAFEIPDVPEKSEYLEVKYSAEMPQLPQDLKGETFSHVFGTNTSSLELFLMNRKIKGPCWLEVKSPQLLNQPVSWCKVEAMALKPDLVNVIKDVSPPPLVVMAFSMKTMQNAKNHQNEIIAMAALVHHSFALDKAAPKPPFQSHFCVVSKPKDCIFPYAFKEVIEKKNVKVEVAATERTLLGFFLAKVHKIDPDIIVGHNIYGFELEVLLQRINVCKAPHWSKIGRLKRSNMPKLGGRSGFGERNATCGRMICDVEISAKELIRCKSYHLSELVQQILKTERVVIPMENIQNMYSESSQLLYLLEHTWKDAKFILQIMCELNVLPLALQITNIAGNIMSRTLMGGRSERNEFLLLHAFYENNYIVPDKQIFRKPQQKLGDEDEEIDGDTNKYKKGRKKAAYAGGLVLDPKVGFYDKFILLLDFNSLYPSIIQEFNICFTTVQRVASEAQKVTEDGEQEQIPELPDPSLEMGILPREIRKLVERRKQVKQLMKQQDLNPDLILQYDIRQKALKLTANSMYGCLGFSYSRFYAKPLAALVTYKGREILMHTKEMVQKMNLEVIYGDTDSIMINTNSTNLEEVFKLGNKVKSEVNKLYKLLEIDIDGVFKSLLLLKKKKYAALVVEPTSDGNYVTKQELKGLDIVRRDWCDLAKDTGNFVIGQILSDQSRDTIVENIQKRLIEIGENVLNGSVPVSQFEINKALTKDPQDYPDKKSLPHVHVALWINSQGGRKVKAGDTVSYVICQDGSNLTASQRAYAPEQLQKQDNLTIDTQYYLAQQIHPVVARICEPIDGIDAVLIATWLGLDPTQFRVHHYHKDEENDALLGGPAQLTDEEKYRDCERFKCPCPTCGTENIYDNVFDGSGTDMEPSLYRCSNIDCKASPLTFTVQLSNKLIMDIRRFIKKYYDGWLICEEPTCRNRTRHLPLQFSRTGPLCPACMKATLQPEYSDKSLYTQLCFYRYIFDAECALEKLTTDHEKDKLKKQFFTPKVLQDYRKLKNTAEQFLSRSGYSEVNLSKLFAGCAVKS

Target: human DNA polymerase-α (Homo sapiens, UniProt P09884)
Test: Primer/extension assay with human DNA polymerase-α (DNA template, DNA primer)
Format: biochemical
Source text: The antiviral activity of the phosphonate nucleosides of the invention may be mostly explained by their intracellular metabolisation into their diphosphates (hereinafter referred as pp) followed by incorporation into the viral genome and chain termination. We used a primer/extension assay in order to compare the ability of the HIV reverse transcriptase and the human DNA polymerase-α to accept PMDTApp (see FIG. 15) as a substrate in comparison to deoxy-adenosine triphosphate (hereinafter referred as dATP). This will provide us with suitable information about the selectivity of the anti-HIV compound of the invention since the human DNA polymerase-α is mainly involved in replication of the nuclear genome while the HIV reverse transcriptase plays a key role in the replication of the viral genome.
The following incorporation study was effected with a DNA template and a DNA primer, as DNA polymerase-α and reverse transcriptase are both able to synthesize double stranded DNA (although reverse transcriptase is also able to synthesize a DNA strand using RNA as template). Both enzymes were able to extend a DNA primer with the phosphonate nucleotide, but the modified nucleotide was only a very poor substrate for the human DNA polymerase α.

Nc1ncnc2c1ncn2C1CC(OCP(=O)(O)OP(=O)(O)OP(=O)(O)O)CO1 (stereo not drawn)
Substrate quality for human DNA polymerase α (extension of a DNA primer): very poor substrate
Enzyme concentration for incorporation relative to that used to incorporate natural dATP (human DNA polymerase α): more than 100 times
Enzyme concentration resulting in incorporation (human DNA polymerase α): 0.4 U/μL
